The nature of data set [1]: in vivo. The note with it: female, NOD-SCID gamma (NSG), mouse, po, 200 mg/kg.
A short description of data set [2]: in vivo. The settings on record: female, CD-1, mouse, po, 50 mg/kg.

Experimental findings from article PMC11403621 (Journal of Medicinal Chemistry, 2024) are described below.

For orientation: bioavailability means the share of a dose that reaches the circulation, judged against a reference dose that is usually intravenous. As to `Cc1c(C(=O)NS(=O)(=O)N(C)C)cc(-c2ccc(Cl)c(Oc3ccccn3)c2)c2cc[nH]c12`, the concentration at 8 h came to 5.4 µM in “in vivo [1]” (plasma) and 70 µM in the data set “in vivo [1]” (tumor). In addition, in the data set “in vivo [1]” (tumor), the concentration at 12 h worked out at 54 µM. Further, in the data set “in vivo [2]”, the bioavailability at 24 h was determined as 99.8%.
